Target: CDK4/Cyclin D1 (Homo sapiens (Human), UniProt P11802)
Test: CDK4/CyclinD1 enzymatic activity assay (TR-FRET)
Conditions: read-out: CDK4_D1 IC50, ATP 2 mM, tested form: TFA
Description: CDK4/CyclinD1 Enzymatic Activity Assay
The inhibitory activity of compounds was evaluated in vitro using TR-FRET assay with white 384-well low volume microplate (Greiner Bio-One). CDK4/Cyclin D1 catalyzed phosphorylation of peptide in the presence and absence of compounds was measured. IC50 determination. Recombinant protein complex CDK4/Cyclin D1, expressed from insect cell, was purchased from ProQinase. Testing compounds were dissolved in DMSO at 0.1 mM and tested in 9-dose IC50 mode. The reaction mixture was prepared by mixing CDK4/CyclinD1 (1 nM final), ULight-4E-BP1 (100 nM final, Perkinelmer, TRF0128-D), and ATP (2 mM final) in assay buffer (20 mM of HEPES pH 7.4, 1 mM of EGTA, 0.05% BSA, 0.005% Tween 20, and 1 mM TCEP). The compound of interest in DMSO was added to each well in 3-fold serial dilution by dispenser (TECAN D300E). After 20 minutes preincubation at room temperature, MgCl2 (10 mM final) was added to initiate the reaction. […] The reaction signal was measured by Envision multimode plate reader (PerkinElmer, 2102-0010). IC50 values were determined by fitting the data to the standard 4 parameters with Hill Slope using GraphPad Prism software.

Protein sequences, listed by entry. Tags and fused reporters are not part of them.
UniProt P11802, whole entry: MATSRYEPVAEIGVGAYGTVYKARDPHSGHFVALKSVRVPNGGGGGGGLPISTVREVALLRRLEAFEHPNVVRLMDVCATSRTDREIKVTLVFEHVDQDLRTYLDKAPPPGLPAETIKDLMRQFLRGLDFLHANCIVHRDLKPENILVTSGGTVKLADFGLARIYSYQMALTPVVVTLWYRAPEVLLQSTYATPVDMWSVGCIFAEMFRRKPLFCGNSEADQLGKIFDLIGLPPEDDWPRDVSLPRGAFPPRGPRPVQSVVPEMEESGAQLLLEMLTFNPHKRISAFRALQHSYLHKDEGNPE
UniProt P24385, whole entry partner: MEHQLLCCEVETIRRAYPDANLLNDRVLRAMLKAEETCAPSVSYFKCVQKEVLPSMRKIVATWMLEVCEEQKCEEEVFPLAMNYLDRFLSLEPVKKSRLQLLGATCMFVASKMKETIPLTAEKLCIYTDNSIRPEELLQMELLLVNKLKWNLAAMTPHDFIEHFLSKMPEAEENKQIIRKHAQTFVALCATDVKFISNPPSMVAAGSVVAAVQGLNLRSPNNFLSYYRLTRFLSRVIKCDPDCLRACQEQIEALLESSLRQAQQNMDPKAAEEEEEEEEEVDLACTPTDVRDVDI

`Cc1c(-c2nc(Nc3ccc(C4CCN(C)CC4)cn3)ncc2F)sc2c(C(C)C)c[n+]([O-])cc12` showed an IC50 of 20 to 200 nM.

— patent US11685744B2, “CDK inhibitors and their use as pharmaceuticals” (Prelude Therapeutics, Incorporated, priority 2020, dated 2023)
